Results from patent US5308605A, “Diagnosis of tumors with 5-radioiodo-2'-deoxyuridine” (priority 1992, dated 1994).
Where two headings read alike, the source gives them in different places.

How the values were obtained:
9 L gliosarcoma [1] = test: Biodistribution 40 h after injection in brain tumor-bearing rats
9 L gliosarcoma [2] = test: Scintigraphic imaging of brain tumors after intratumor injection
[3] = test system: transitional cell carcinoma of the bladder; type: in vivo, Fisher 344 rats
Source text: No carrier added [^125 I/^131 I] IUdR was synthesized as described previously, see U.S. Pat. No. 4,851,520 hereby incorporated by reference, and purified on a C18 reverse phase HPLC column. The radiochemical purity of the product was>99% as determined by TLC with specific activities of 81.40 TBq/mmol and 96.94 GBq/mmol for [^125 I] IUdR and [^131 I] IUdR, respectively.
The carcinogen N-methyl-N-nitrosourea (MNU), known to induce transitional cell carcinoma of the bladder, was instilled directly into the bladder lumen of 4-to-5-week old female Fisher 344 rats (20 animals) via bladder catheterization using a 22-gauge angiocatheter (1.5 mg/0.15 ml saline intravesically, every other week for a total of 4 doses). The drinking water was supplemented with a combination of trimethoprim-sulfamethoxasole, neomycin sulfate and polymixin B. Twelve to sixteen weeks after the last MNU infusion, the bladder was catheterized and emptied and [^125 I/^131 I ]IUdR (6. 4 to 10. 9 MBq [^125 I]IUdR [172 to 294 μCi] and 10.7 MBq [^131 I ]IUdR [290 μCi]) was administered through the catheter in a 100- or 200- μl volume and left in place for 2 h. The bladder contents were then withdrawn and the bladder rinsed with normal saline (5×1-ml). Nontumor-bearing control rats (16 animals) were injected by the same route with identical amounts of [^125 I/^131 I]IUdR. The drinking water of all animals was supplemented with 0. 1% potassium iodide from 48 to 72 h prior to the administration of the radiopharmaceutical up to the time of sacrifice. The tumor-bearing rats and the non-tumor bearing control rats were divided into Group A consisting of 12 tumor-bearing and 12 control rats, and Group B consisting of 8 tumor-bearing and 4 control rats. Group A was sacrificed 48 hours after administration of the radiopharmaceutical while Group B was sacrificed one (1) week after administration of the radiopharmaceutical.
Several animals also presented additional squamous metaplasia. […] These latter animals also frequently developed stones and calcifying and/or ossifying fibrosis of the bladder wall.
The biodistribution studies were conducted at 48 hours and at 1 week after administration of radiolabeled IUdR in order to quantitate the in vivo distribution of the radiopharmaceutical in terms of percent injected dose per gram of tissue (%ID/g) and to derive tumor to normal tissue ratios. Various organs and tissues of interest were excised, rinsed, blotted dry, weighed, and their radioactive content was determined in a gamma counter along with that of urine, stomach contents, blood and bone marrow.

[4] = test system: murine ovarian tumor (MOT); test: Biodistribution after i.p. injection in ovarian tumor-bearing mice; settings: 24 h after last of 5 i.p. injections
[5] = 48 h, papillary carcinoma group

O=c1[nH]c(=O)n([C@H]2C[C@H](O)[C@@H](CO)O2)cc1I [^123 IUdR, 5-iodo-2'-deoxyuridine]
right brain/blood ratio (9 L gliosarcoma [1]): 9 | right brain/frontal lobes ratio (9 L gliosarcoma [1]): 71 | right brain/left brain ratio (9 L gliosarcoma [1]): 22 | tumor to normal tissue ratio, all tissues (9 L gliosarcoma [1]): eight | activity in all other normal tissues (9 L gliosarcoma [1]; exception of stomach and bladder): low with the exception of the stomach and the bladder | injected dose associated with tumor (9 L gliosarcoma [1]; one animal, tumor precisely excised): 12 % of the injected dose | scintigraphic activity in the thyroid (9 L gliosarcoma [2]; 1 h, potassium iodide in drinking water): No activity was seen in the thyroid | ratio of mean counts per pixel in head, tumor-bearing vs control (9 L gliosarcoma [2]; 1 h after injection): at least twice | scintigraphic activity in stomach and bladder (9 L gliosarcoma [2]; 1 h post injection): Activity in the stomach and the bladder was also evident | ratio of mean counts per pixel in head, tumor-bearing vs control (maximum) (9 L gliosarcoma [2]; 38 h): 3.8 | persistence of activity in the head (9 L gliosarcoma [2]; tumor-bearing animals, images 12-38 h): persistence of the activity within the same region in all tumor-bearing animals

O=c1[nH]c(=O)n([C@H]2C[C@H](O)[C@@H](CO)O2)cc1I [^125 IUdR, 5-iodo-2'-deoxyuridine]
tumor to normal tissue ratio, all ([3]; 1 week, group A, FIG. 4): above one | tumor to normal tissue ratio, liver ([3]; 1 week, group A, FIG. 4): 147.7 | tumor to normal tissue ratio, normal bladder ([3]; 1 week, group A, FIG. 4): 65.7 | tumor to normal tissue ratio, small intestine ([3]; 1 week, group A, FIG. 4): 5.0 | tumor to normal tissue ratio, all tissue groups ([3]; 48 h, FIG. 2, bladder of tumor-bearing / normal tissues of control): above 1 | tumor to normal tissue ratio, bone ([3]; 48 h, hyperplasia group): 2.0 | tumor to normal tissue ratio, muscle ([3]; 48 h, hyperplasia group): 43.2 | tumor to normal tissue ratio, normal bladder ([3]; 48 h, hyperplasia group): 12.2 | tumor to normal tissue ratio, bone [3, 5]: 4.4 | tumor to normal tissue ratio, muscle [3, 5]: 92.5 | tumor to normal tissue ratio, normal bladder [3, 5]: 26.2 | tumor-to-normal-tissue ratio, organs with nondividing cells ([4]; brain, heart): over 400 | tumor-to-normal-tissue ratio, organs with actively proliferating cells ([4]; uterus, intestine, stomach): 20
